This is a selection: effects in other tests are not listed, and their absence says nothing.
System: GABAA receptor
Experiment: […]-TBPS radioligand displacement, full dose-response; supported by […]-TBOB displacement and reduced GABA-evoked currents in BLA neurons

In the case of `O=[N+]([O-])N1CN([N+](=O)[O-])CN([N+](=O)[O-])C1`, the Ki is reported as 21.1 µM.
